Data taken from patent publication US8466155B2, “Pyrimidines” (Boehringer Ingelheim International GmbH, priority 2009, dated 2013).

Chains of the proteins cited; added tags and fusions are not shown.
UniProt Q05397, whole entry: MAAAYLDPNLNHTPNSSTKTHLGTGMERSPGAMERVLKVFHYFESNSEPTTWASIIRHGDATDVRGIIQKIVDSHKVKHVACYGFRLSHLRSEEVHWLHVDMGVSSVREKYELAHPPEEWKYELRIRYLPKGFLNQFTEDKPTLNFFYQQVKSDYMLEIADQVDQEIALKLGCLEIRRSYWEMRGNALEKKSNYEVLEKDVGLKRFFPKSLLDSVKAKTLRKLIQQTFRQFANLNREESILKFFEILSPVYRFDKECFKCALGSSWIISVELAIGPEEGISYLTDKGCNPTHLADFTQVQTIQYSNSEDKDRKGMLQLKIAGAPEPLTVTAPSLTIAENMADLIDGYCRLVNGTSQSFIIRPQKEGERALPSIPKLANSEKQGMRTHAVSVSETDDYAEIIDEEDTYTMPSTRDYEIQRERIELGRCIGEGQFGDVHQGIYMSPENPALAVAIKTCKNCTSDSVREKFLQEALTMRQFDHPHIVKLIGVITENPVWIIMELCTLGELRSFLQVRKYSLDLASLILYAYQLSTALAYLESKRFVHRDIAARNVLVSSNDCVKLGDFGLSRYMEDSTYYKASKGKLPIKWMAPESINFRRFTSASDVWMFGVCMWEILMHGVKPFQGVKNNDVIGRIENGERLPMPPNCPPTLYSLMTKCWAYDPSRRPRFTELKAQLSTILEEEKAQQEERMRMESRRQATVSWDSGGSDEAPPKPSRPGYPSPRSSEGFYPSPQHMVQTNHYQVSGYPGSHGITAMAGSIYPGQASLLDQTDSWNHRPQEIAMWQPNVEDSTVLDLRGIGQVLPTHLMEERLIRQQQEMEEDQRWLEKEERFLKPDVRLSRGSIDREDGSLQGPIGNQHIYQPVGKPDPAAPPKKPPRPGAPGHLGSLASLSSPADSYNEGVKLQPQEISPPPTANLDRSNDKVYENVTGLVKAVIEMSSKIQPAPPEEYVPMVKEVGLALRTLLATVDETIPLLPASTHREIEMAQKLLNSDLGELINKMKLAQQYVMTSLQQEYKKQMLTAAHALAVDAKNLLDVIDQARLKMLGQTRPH

Biological target: PTK2 (Homo sapiens, UniProt Q05397)
Assay: PTK2 enzyme test, Assay 1 (DELFIA, PT60 antibody)
Assay type: biochemical
Conditions: read-out: PTK2 1 h IC50, 1 h pre-incubation, 1 h kinase reaction, values without *

SMILES: COc1cc(C(=O)NC2CCN(C)CC2)c(Cl)cc1Nc1ncc(C(F)(F)F)c(O[C@@H]2CCC[C@H]2NS(C)(=O)=O)n1
- IC50: 1 nM
